In ChEMBL document CHEMBL1134073, “Synthesis and antiviral activities of the major metabolites of the HIV protease inhibitor ABT-378 (Lopinavir)” (Bioorg Med Chem Lett, 2001):

Biological target: Human immunodeficiency virus type 1 protease (Human immunodeficiency virus 1, UniProt Q72874)
Assay: Inhibitory activity against HIV protease

- Ki: 1.3 pM
SMILES: Cc1cccc(C)c1OCC(=O)N[C@@H](Cc1ccccc1)[C@@H](O)C[C@H](Cc1ccccc1)NC(=O)[C@H](C(C)C)N1CCCNC1=O [LOPINAVIR]
